{"source": "patent US8604207B2", "about": "“Nitrogenous heterocyclic derivative and medicine containing the same as an active ingredient” (Ono Pharmaceutical Co., Ltd., priority 2004, dated 2013)", "key": {"[1]": {"test": "Pharmacokinetics test in blood in monkey", "conditions": "cynomolgus monkey, oral administration 1 mg/kg, mixed solution of five test compounds, plasma", "procedure": "Each of five test compounds were weighed, and dissolved in Soltol (Trademark; BASF Takeda Vitamins Ltd.)/propylene glycol=7/3 heated to 50° C. to be 5 mg/mL solution thereof. Equal amount of each five samples were weighed, mixed, and then diluted with distilled water for injection by five times to make a solution for oral administration. The solution for oral administration (1 mg/kg) was forced intragastric administering to cynomolgus monkey (male, Hamri Co., Ltd) with sonde (n=3). The administering was done in the fasting state but they have freedom to drink water. Each 1 mL of blood samples were collected from superficial cephalic vein, using a heparinized syringe, 5, 15, 30 minutes, 1, 2, 4, 6, 8 and 24 hours after administration. Collected samples were stored into ice, centrifuged at 3000 rpm for 15 minutes to get plasma. The plasma was stored at −20° C. The plasma sample stored at −20° C. was dissolved, then 100 μL of the resulting solution was added by internal standard solution and acetonitrile (2 mL), agitated, centrifuged at 3000 rpm for 10 minutes. […] The residue was redissolved in 100 μL of mobile phase A, and then 40 μL of the resulting solution was analyzed by LC/MS/MS […]\n(§1) Transition of plasma concentration of the test compound in monkey was analyzed with non-compartment analytic method using WinNonlin 4.0.1 (Pharsight), and AUC was calculated."}, "[2]": {"test": "Measurement of bioavailability (BA)", "conditions": "cynomolgus monkey, oral 3 mg/kg vs intravenous 1 mg/kg", "procedure": "The test compound was weighed, and dissolved in 30% HP-β-CD (Trademark; Mitsubishi Corporation) to make 1 mg/mL solution for intravenous administration. The test compound was weighed, and dissolved in Soltol (Trademark; BASF Takeda Vitamins Ltd.)/propylene glycol=7/3 heated to 50° C. to be 5 mg/mL solution thereof. Equal amount of each five samples were weighed, mixed, and then diluted with distilled water for injection by five times to make a solution for oral administration. The solution for intravenous administration (1 mg/kg) was administered to cynomolgus monkey (male, Hamri Co., Ltd) via superficial cephalic vein by single intravenous dose (n=3). The solution for oral administration (3 mg/kg) was forced intragastric administering to cynomolgus monkey (male, Hamri Co., Ltd) with sonde (n=3). The administering was done in the fasting state but they have freedom to drink water. […] The residue was redissolved in 100 μL of mobile phase A, and then 40 μL of the resulting solution was analyzed by LC/MS/MS […]\nas §1\nBA was calculated by the following calculation formula. […]"}}, "note": "This is a selection: effects in other tests are not listed, and their absence says nothing."}
{"smiles": "Cc1ccc(NC(=O)N(c2ccccc2)C2CCN(Cc3ccc(Oc4ccc(NS(C)(=O)=O)cc4)nc3)CC2)cn1", "values": [{"measurement": "AUC", "setting": "[1]", "value": 1150, "unit": "ng·h/mL"}]}
{"smiles": "CS(=O)(=O)c1ccc(Oc2ccc(CN3CCC(N(C(=O)Nc4ccc(F)cc4)c4ccccc4)CC3)cn2)cc1", "values": [{"measurement": "AUC", "setting": "[1]", "value": 226, "unit": "ng·h/mL"}, {"measurement": "BA", "setting": "[2]", "value": 42, "unit": "%"}]}
